Literature values, collected in publication PMC8733726, “Dioctanoyl Ultrashort Tetrabasic β-Peptides Sensitize Multidrug-Resistant Gram-Negative Bacteria to Novobiocin and Rifampicin” (Frontiers in Microbiology, 2021).

Settings: ref Chen and Lu, 2020; cited from earlier work

## daptomycin
  In vivo elimination half-life: 8 to 9 h
